Values of other authors in patent US20250356984A1 (priority 2022, published 2025).
This is a selection: effects in other tests are not listed, and their absence says nothing.

Conditions: point at which drug concentration in the blood is 50% after discontinuation of infusion

Q: Which context-sensitive half-life time does the source give for `CCC(=O)N(c1ccccc1)C1(C(=O)OC)CCN(CCC(=O)OC)CC1` here?
A: 3 min
